pIC50: −log10 of the molar value.

The assay deals with T1, Acyl-CoA desaturase 1 (Mus musculus, UniProt P13516).
T1 sequence (P13516 whole entry): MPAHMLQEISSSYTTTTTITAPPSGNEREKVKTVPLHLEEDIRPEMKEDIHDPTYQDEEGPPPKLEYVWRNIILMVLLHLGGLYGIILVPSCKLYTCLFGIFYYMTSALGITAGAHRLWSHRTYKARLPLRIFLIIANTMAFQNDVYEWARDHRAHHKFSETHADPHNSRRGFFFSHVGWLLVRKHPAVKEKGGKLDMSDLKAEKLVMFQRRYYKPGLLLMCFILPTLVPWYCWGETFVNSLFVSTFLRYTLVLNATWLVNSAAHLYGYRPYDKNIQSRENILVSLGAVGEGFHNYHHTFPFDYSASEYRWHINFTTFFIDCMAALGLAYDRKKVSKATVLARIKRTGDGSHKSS
Kind of assay: Inhibition of SCD1 in ICR mouse liver microsome using [9,10 3H]- stearoyl-Coenzyme A substrate assessed as decreased production of tritiated water after 20 min by scintillation counting analysis. A general note: Liver microsomes are a subcellular fraction often used to study metabolism.

Take `O=C(NCCCCC1CC1)c1ccc(N2CCN(C(=O)c3ccccc3C(F)(F)F)CC2)nn1`: the pIC50 is 8.00.

What is called pIC50 is the IC50 on a negative log10 scale, so that one unit is a factor of ten.

Values taken from ChEMBL document CHEMBL2311383, “Discovery of piperazin-1-ylpyridazine-based potent and selective stearoyl-CoA desaturase-1 inhibitors for the treatment of obesity and metabolic syndrome” (J Med Chem, 2013).
